# Reference: US20170145069A1 (Novo Nordisk, published 2017)
# By UniProt entry, the sequences of proteins in these tests, tags left out. Where a name states a change or a piece, a line headed by the entry shows the natural chain unless it says otherwise.
# UniProt P43220: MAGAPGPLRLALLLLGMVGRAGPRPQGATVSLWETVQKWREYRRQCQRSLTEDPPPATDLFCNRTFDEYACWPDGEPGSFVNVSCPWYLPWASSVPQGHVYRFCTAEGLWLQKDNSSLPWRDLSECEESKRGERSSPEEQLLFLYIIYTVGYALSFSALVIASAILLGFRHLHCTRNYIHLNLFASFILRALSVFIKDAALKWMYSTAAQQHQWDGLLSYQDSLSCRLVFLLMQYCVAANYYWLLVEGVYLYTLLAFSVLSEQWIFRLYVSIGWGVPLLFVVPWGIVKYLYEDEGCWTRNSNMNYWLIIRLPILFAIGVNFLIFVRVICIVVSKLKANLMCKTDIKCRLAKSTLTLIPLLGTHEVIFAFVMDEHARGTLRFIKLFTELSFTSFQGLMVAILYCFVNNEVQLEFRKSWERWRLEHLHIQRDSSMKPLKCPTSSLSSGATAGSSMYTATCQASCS
# B1: GLP-1 derivative of Example 3 (Chem. 22), N^eps26,N^eps37-diacylated [His^31,Gln^34,Lys^37]-GLP-1-(7-37)-peptide (peptide)
# peptide: HAEGTFTSDVSSYLEGQAAKEFIAHLVQGRK
# modifications: eps-amino of Lys26 and Lys37 each acylated with 10-(4-carboxyphenoxy)decanoyl-gGlu-Ser-Ser-Gly-Ser-Ser-Gly
# Experiments:
# human GLP-1 receptor [1] = molecular target: T1, human GLP-1 receptor (human, UniProt P43220 24-463); experiment: cell-based or functional assay
# human GLP-1 receptor [2] = molecular target: T1, human GLP-1 receptor; experiment: SPA, displacement of 125I-GLP-1(7-36)NH2, BHK membranes, 0.001% HSA
# Procedure: Test compounds, membranes, SPA-particles and [¹²⁵I] ]-GLP-1(7-36)NH₂ were diluted in assay buffer. 50 ul (micro liter) buffer (“low albumin” experiment containing 0.001% HSA) was added to Optiplate, and 25 ul of test compounds were added. 5-10 μg membrane protein/sample was added (50 μl) corresponding to 0.1-0.2 mg protein/ml (to be preferably optimised for each membrane preparation). SPA-particles (Wheatgerm agglutinin SPA beads, Perkin Elmer, #RPNQ0001) were added in an amount of 0.5 mg/well (50 μl). The incubation was started with [¹²⁵I]-GLP-1]-(7-36)NH₂ (final concentration 0.06 nM corresponding to 49.880 DPM, 25 μl). The plates were sealed with PlateSealer and incubated for 120 minutes at 30° C. while shaking. The plates were centrifuged (1500 rpm, 10 min) and counted in Topcounter.
# The IC₅₀ value was read from the curve as the concentration which displaces 50% of ¹²⁵I-GLP-1 from the receptor.
binder,measurement,setting,value
B1,In vitro potency (AlphaScreen cAMP; membranes) EC50,human GLP-1 receptor [1],0.137 nM
same,IC50,human GLP-1 receptor [2],11.6 nM
